These results are taken from patent US7410993B2, “3,6-disubstituted azabicyclo [3.1.0] hexane deriviatives useful as muscarinic receptor antagonists” (Ranbaxy Laboratories Limited, priority 2002, dated 2008).

The chains behind the UniProt entries cited, without tags or fusion partners.
UniProt P08483, whole entry: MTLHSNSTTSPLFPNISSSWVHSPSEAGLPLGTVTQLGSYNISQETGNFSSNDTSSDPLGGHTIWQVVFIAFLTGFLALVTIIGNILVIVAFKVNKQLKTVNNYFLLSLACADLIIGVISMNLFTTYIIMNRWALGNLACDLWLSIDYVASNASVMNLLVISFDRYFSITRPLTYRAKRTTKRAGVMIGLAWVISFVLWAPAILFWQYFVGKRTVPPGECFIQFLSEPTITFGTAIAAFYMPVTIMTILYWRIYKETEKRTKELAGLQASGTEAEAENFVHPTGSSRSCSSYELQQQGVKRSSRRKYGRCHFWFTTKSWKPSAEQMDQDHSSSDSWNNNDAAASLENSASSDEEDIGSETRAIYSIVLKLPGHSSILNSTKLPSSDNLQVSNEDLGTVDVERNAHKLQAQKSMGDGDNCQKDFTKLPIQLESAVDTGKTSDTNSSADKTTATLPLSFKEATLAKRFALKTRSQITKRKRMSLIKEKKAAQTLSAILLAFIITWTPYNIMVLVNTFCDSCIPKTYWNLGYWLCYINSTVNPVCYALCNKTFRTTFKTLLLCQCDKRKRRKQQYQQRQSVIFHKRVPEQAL

The assay has as its target T1, M3 muscarinic receptor (Rattus norvegicus, UniProt P08483).
T1 construct: Submandibular glands and heart were isolated and placed in ice cold homogenizing buffer; from tissue; host or cells: rat submandibular gland membrane homogenate
Nature of the assay: Radioligand binding assay, [3H]-N-methylscopolamine, rat submandibular gland membranes. The settings on record: [3H]NMS binding.
In the case of `Cc1ccc(O)c(C(CCN2CC3CC3C2C)c2ccccc2)c1` (single isomer, unassigned) [Compound No. 8, 1-(2-methyl-3-azabicyclo[3.1.0]hex-3-yl)-3-(2-hydroxy-5-methylphenyl)-3-phenyl propane], the affinity, expressed as Ki, was 79 nM. Regarding `Cc1ccc(O)c(C(CCN2CC3CC3C2C)c2ccccc2)c1` (single isomer, unassigned) [Compound No. 9, 1-(2-methyl-3-azabicyclo[3.1.0]hex-3-yl)-3-(2-hydroxy-5-methylphenyl)-3-phenyl propane], the Ki (as a rule, a measure of affinity in units of concentration, obtained from inhibition or displacement) amounted to 25 nM. Then `Cc1ccc(OCc2ccccc2)c(C(CCN2CC3CC3C2)c2ccccc2)c1` (centres unmarked) [Compound No. 1, 1-(3-azabicyclo[3.1.0]hex-3-yl)-3-(2-benzyloxy-5-methylphenyl)-3-phenyl propane], with over 1000 nM. Regarding `Cc1ccc(O)c(C(CCN2CC3CC3C2)c2ccccc2)c1` (centres unmarked) [Compound No. 2, 1-(3-azabicyclo[3.1.0]hex-3-yl)-3-(2-hydroxy-5-methylphenyl)-3-phenyl propane], the Ki turned out to be 50 nM. As for `Cc1ccc(OCc2ccccc2)c(C(CCN2CC3(C)CC3(C)C2)c2ccccc2)c1` (centres unmarked) [Compound No. 3, 1-(1,5-dimethyl-3-azabicyclo[3.1.0]hex-3-yl)-3-(2-benzyloxy-5-methylphenyl)-3-phenyl propane], the Ki was over 10000 nM. Then `Cc1ccc(O)c(C(CCN2CC3(C)CC3(C)C2)c2ccccc2)c1` (centres unmarked) [Compound No. 4, 1-(1,5-dimethyl-3-azabicyclo[3.1.0]hex-3-yl)-3-(2-hydroxy-5-methylphenyl)-3-phenyl propane], with over 1000 nM; and `Cc1ccc(O)c(C(CCN2CC3CC3(C)C2)c2ccccc2)c1` (centres unmarked) [Compound No. 6, 1-(1-methyl-3-azabicyclo[3.1.0]hex-3-yl)-3-(2-hydroxy-5-methylphenyl)-3-phenyl propane], with 118 nM. `Cc1ccc(OCc2ccccc2)c(C(CCN2CC3CC3C2C)c2ccccc2)c1` (centres unmarked) [Compound No. 7, 1-(2-methyl-3-azabicyclo[3.1.0]hex-3-yl)-3-(2-benzyloxy-5-methylphenyl)-3-phenyl propane] displayed an inhibitory constant (Ki) of over 1000 nM.
